Species on record: Homo sapiens
Assay: Selectivity ratio of IC50 for human MAOB to IC50 for human MAOA

## CN1C(=N)N(C)/C(=C/c2c[nH]c3cc(Br)ccc23)C1=O
  Ratio IC50: 80.2

— ChEMBL document CHEMBL2440075, “In vitro structure-activity relationships of aplysinopsin analogs and their in vivo evaluation in the chick anxiety-depression model” (Bioorg Med Chem, 2013)
